Source: PubChem BioAssay AID2267 (National Center for Advancing Translational Sciences (NCATS), 2010)
The list shows a part of the results, in another mix than the full data. Inconclusive results are not listed. Calls of active or inactive are those of the source. Calls follow the shape of the dose curve; as a rule, active = well fitted inhibition curve with a large enough effect; inconclusive = small, poorly fitted or top-dose-only effect, or effect the other way; inactive = flat fitted curve, though single readings scatter.

Sequences of proteins named here, by UniProt entry; tags and fusion partners are left off.
UniProt P14618, whole entry, looked up: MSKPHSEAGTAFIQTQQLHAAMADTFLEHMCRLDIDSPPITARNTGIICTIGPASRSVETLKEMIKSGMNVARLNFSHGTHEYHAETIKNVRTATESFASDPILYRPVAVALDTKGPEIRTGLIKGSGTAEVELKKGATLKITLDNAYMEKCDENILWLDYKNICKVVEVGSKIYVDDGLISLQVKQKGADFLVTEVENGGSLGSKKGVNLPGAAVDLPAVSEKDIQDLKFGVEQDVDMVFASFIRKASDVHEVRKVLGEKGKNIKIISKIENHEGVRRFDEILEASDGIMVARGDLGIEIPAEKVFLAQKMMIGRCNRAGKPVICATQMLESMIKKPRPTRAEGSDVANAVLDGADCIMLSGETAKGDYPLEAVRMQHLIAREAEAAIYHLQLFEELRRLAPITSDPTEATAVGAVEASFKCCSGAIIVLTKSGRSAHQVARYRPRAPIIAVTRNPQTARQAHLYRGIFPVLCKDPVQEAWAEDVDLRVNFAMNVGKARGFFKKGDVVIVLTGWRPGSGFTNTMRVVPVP

What follows are molecules tested against Pyruvate kinase PKM (Homo sapiens) (UniProt P14618) (assay: Secondary assay for Inhibitors of Human Pyruvate Kinase M2 isoform). Conditions: purified hPK-M2, LDH-coupled NADH fluorescence kinetic; at 57.5 µM (top of the series).
Text: NIH Chemical Genomics Center [NCGC] Matthew G. Vander Heiden, M.D., Ph.D. [Harvard Medical School, 77 Avenue Louis Pasteur, Boston, MA 02115] MLPCN Grant: 1 R03 MH085679-01 NCGC Assay Overview: Human pyruvate kinase muscle 2 (hPK-M2)enzyme was supplied as a highly purified (>95% pure) preparation from Harvard Medical School and a secondary assay was used to evaluate compounds. This assay couples the formation of pyruvate from hPK-M2 using lactate dehydrogenase (LDH) and NADH. The depletion of NADH is followed in a fluorescent-based kinetic assay that follows the formation of pyruvate to lactate, as catalyzed LDH (described by Hannaert et al., 2002)1 Pyruvate kinase substrates, PEP and ADP, were present in the assay at 0.1 mM and 4 mM respectively. In this kinetic assay initial rates were determined by following the fluorescence of NADH depletion.
NCGC Assay Protocol Summary: Three uL of substrate mix (final concentration, 50 mM Tris-Cl pH 8.0, 200 mM KCl, 15 mM MgCl2, 0.1 mM PEP, 4.0 mM ADP, and 0.2 mM NADH) was dispensed into black-solid 1536 well plates. 23 nL of compounds were delivered by a pin tool and 1 uL of enzyme mix (final concentrations, 10 nM hPK-M2 and 1 uM of LDH) was added. Plates were immediately placed in ViewLux (Perkin Elmer) and NADH fluorescence was determined at 30 second exposure intervals for between 3 and 6 minutes. Data were normalized to the basal signal.

Row | SMILES | activity change, negative = inhibition
1 | Nc1ncnc2c1ncn2C1OC(COP(=O)(O)O)C(O)C1O (configuration not stated) | inactive: -9.03%
2 | Nc1ncnc2c1ncn2[C@@H]1O[C@H](COP(=O)(O)O)[C@@H](O)[C@H]1O | inactive: -8.96%
